Measured values taken from ChEMBL document CHEMBL1131649, “A novel series of N-(hexahydro-1,4-diazepin-6-yl) and N-(hexahydroazepin- 3-yl)benzamides with high affinity for 5-HT3 and dopamine D2 receptors” (Bioorg Med Chem Lett, 1998).

By UniProt entry, the sequences of proteins in these tests, tags left out.
UniProt P61169, whole entry: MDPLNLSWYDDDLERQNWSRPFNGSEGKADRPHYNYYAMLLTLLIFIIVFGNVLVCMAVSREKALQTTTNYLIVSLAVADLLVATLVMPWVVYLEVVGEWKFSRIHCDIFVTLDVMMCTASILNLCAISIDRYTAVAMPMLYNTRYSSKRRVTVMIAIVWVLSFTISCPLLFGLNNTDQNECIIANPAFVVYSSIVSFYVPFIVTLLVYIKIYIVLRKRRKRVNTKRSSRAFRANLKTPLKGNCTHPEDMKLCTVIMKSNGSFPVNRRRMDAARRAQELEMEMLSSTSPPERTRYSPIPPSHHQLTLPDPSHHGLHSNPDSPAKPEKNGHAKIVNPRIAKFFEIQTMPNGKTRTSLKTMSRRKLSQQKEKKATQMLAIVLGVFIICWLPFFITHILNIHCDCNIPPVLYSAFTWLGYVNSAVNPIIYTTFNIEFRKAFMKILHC

Molecular target: D(2) dopamine receptor (Rattus norvegicus, UniProt P61169)
Assay: Binding affinity against dopamine D2 receptor in rat brain synaptic membrane using [3H]-spiperone as radioligand
Type: cell membranes

IC50: 230 nM
SMILES: COc1cc(N)c(Cl)cc1C(=O)NC1CCCCN(C)C1 (stereo unspecified)
